Reference: PMC7150870 (Toxins, 2020)

Assay: in vitro
Conditions: human (HepG2, Caco-2, HEK 293T); mouse (RAW 264.7)

CC1=C[C@H]2O[C@@H]3[C@H](O)C[C@](C)([C@@]2(CO)[C@H](O)C1=O)[C@]31CO1 [DON, deoxynivalenol] showed an IC50 greater than 50 nM.
